The values that follow are results of earlier work, collected in patent publication EP1190712A1, “Oral once daily tramadol beads composition” (SMB Technology, priority 2000, dated 2002).

For this data set the following is noted: human, in vivo.

For `COc1cccc(C2(O)CCCCC2CN(C)C)c1` (stereo not shown) [Tramadol], the elimination half-life is 4 to 6 h.
